Measured values taken from US12655441B2, “PPO polypeptides tolerant to PPO-inhibiting herbicides and use thereof” (QINGDAO KINGAGROOT CHEMICAL COMPOUND CO., LTD., priority 2021, dated 2026).

Tests used:
[1] = system: PPO-deficient Escherichia coli (ΔhemG); test: PPO-deficient E. coli (ΔhemG) transformed by rice OsPPO1 mutant genes, growth on LB medium containing herbicide; settings: for growth of ΔhemG transformant on LB medium containing compound A, compared with the wild type: 500 nM compound A
OsPPO1 = test: In vitro enzyme activity test of OsPPO1 proteins (fluorescence, substrate protoporphyrinogen); format: biochemical, rice; settings: enzyme 500 nM, protoporphyrinogen 0.125-16 μM, excitation 410 nm, detection 630 nm
Experimental: Protoporphyrinogen, a substrate catalyzed by PPO, was prepared by reducing protoporphyrin with sodium amalgam. 10 mg of protoporphyrin was dissolved in 10 mL solvent, added with 20% sodium amalgam at the rate of 0.2 g/mL, reacted for 2 hours, then filtered under the protection of nitrogen in dark place. After the reaction was completed, the reaction solution should become achromatic or light brown. The reaction solution was diluted by adding with reaction buffer (100 mM Tris-HCl, 1 mM EDTA, 5 mM DTT, 0.1% Tween 20/80), and 10% hydrochloric acid was used to adjust pH to about 8.0. […]
3) The constructed fusion expression vector pET28a-MBP-OsPPO1 was transferred into E. coli BL21 (DE3), subjected to induced-expression with 0.5 mM IPTG, then purified with the Ni-NTA column, afterwards subjected to thrombin digestion, dialysed, and purified secondly by dextrin-column and Ni-column. […] The collected strains were re-suspended with the Ni-buffer A (50 mM Tris pH 8.0, 500 mM NaCl, 50 mM imidazole), homogenized by high pressure cell homogenizer, and centrifuged at 4000×g at 4° C. for 30 minutes; the supernatant was purified with the Ni column, then the purity thereof was detected by SDS-PAGE. The thrombin enzyme was added according to the quantity of proteins, dialyzed with 50 mM Tris pH 8.0, 500 mM NaCl, 1 mM DTT buffer. […]

Arabidopsis thaliana = test: Herbicide resistance test of Arabidopsis thaliana seeds overexpressing crop PPO1 WT or mutant on MS medium; format: in vivo; settings: overexpressed in Arabidopsis thaliana seed
Experimental: 1) Sowing: plump and vernalized wild-type Arabidopsis thaliana seeds were selected, treated with 75% alcohol for 1 minute, disinfected with 10% NaClO for 6 minutes, and washed with sterile water for 5 to 6 times. After the sterilization was completed, the seeds were placed on a MS medium plate for one week, then transplanted to sterilized nutrient soil (nutrient soil:vermiculite=1:1) and cultured in a greenhouse at (25±2) ° C. with a photoperiod of 16 h/8 h (light/dark).
4) Infestation of Arabidopsis thaliana inflorescences: the uninfected Arabidopsis thaliana with good growth state and lush inflorescences were selected for infection and their fruit pods were cut off from the plants by scissors prior to transformation. The Arabidopsis thaliana inflorescences were dipped in the prepared infection solution for 0.5 to 1 minute. Then the infected Arabidopsis thaliana seedlings were placed in dark and humid conditions for 24 hours. After one week, the infection was repeated.
After the transformation of dipped Arabidopsis thaliana inflorescences, Arabidopsis thaliana TO-generation seeds were collected and sowed on a resistant MS plate containing 30 mg/L hygromycin to screen positive plants.
The obtained overexpressed mutant and wild-type Arabidopsis thaliana seeds of different crops were tested for resistance on a MS medium (petri dish) containing different concentrations of PPO-inhibiting herbicidal compounds, as shown in FIG. 12-23.

[2] = system: Huaidao No. 5 rice seedlings; test: T0 rice seedlings overexpressing OsPPO1 WT or L423S/Y425I sprayed with compound A; format: in vivo; settings: for resistance levels of overexpressed L423S/Y425I and overexpressed WT: compound A 45 g/ha
Experimental: Rice seeds were peeled, washed with sterile water as many times as needed until the washing water became clear. Then the seeds were disinfected with 70% alcohol for 30 seconds and then with 5% sodium hypochlorite. The seeds were cultivated in a horizontal shaker for 20 minutes, disinfected with sodium hypochlorite and washed with sterile water for 5 times, placed on a sterile absorbent paper to air-dry the surface moisture of the seeds, and inoculated in an induction medium to cultivate the callus at 28° C. • 4) Infection of rice callus with Agrobacterium: the Huaidao No. 5 callus with a diameter of 3 mm was selected for sub-cultivation for 10 days and the callus was collected into a 50 ml centrifuge tube. A bacterial solution of Agrobacterium with a modulated concentration was added into the centrifuge tube containing the callus, and the centrifuge tube was placed on a shaker at 28° C. and 200 rpm to infect for 20 minutes; after the infection was completed, the bacterial solution was discharged, and the callus was placed on a sterile filter paper and air-dried for about 20 minutes and co-cultivated on a co-culture plate on which an sterile filter paper wetted with an AAM (1 ml AAM+30 μl 1000×AS) liquid culture was covered; after 3 days of infestation, Agrobacterium was washed and removed (i.e., washed with sterile water for 5 times and then washed with 500 mg/L of cephalosporin antibiotic for 20 minutes), and then the callus was screened and cultivated in 50 mg/L hygromycin screening medium. • 5) Screening, differentiation and rooting of resistant callus: the co-cultured callus was transferred to screening medium for the first round of screening (2 weeks); after the first round of screening was completed, the newly grown callus was transferred to screening medium (containing 50 mg/L hygromycin) for the second round of screening (2 weeks); after the screening was completed, yellow-white callus with a good growth state were picked out for differentiation, and seedlings of about 1 cm were obtained after 3 to 4 weeks.

[3] = different concentrations of compound A
[4] = different concentrations of flumioxazin
[5] = different concentrations of saflufenacil

B1: L423S (protein)
chain: MAAAAAAMATATSATAAPPLRIRDAARRTRRRGHVRCAVASGAAEAPAAPGARVSADCVVVGGGISGLCTAQALATKHGVGDVLVTEARARPGGNITTAERAGEGYLWEEGPNSFQPSDPVLTMAVDSGLKDDLVFGDPNAPRFVLWEGKLRPVPSKPGDLPFFDLMSIPGKLRAGLGALGVRAPPPGREESVEDFVRRNLGAEVFERLIEPFCSGVYAGDPSKLSMKAAFGKVWRLEDTGGSIIGGTIKTIQERGKNPKPPRDPRLPTPKGQTVASFRKGLTMLPDAITSRLGSKVKLSWKLTSITKSDNKGYALVYETPEGVVSVQAKTVVMTIPSYVASDILRPLSSDAADALSIFYYPPVAAVTVSYPKEAIRKECLIDGELQGFGQLHPRSQGVETLGTIYSSSLFPNRAPAGRVLLSNYIGGSTNTGIVSKTESELVEAVDRDLRKMLINPKAVDPLVLGVRVWPQAIPQFLIGHLDHLEAAKSALGKGGYDGLFLGGNYVAGVALGRCVEGAYESASQISDYLTKYAYK
modifications: Amino-acid sequence of PPO1 from rice mutant (OsPPO1 L423S)
- growth of ΔhemG transformant on LB medium containing compound A, compared with the wild type [1]: grew normally

B2: OsPPO1 L423S/Y425I: Amino-acid sequence of PPO1 from rice mutant (protein)
chain: B1 chain with Y425I
modifications: Amino-acid sequence of PPO1 from rice mutant (OsPPO1 L423S/Y425I)
- enzyme activity relative to WT (OsPPO1): higher than WT
- tolerance to compound A compared with the overexpressed wild-type PPO1 (Arabidopsis thaliana; [3]): much higher
- tolerance to compound A compared with wild-type Arabidopsis thaliana (Arabidopsis thaliana; [3]): certain level of tolerance
- tolerance to flumioxazin compared with the overexpressed wild-type PPO1 (Arabidopsis thaliana; [4]): much higher
- tolerance to flumioxazin compared with wild-type Arabidopsis thaliana (Arabidopsis thaliana; [4]): certain level of tolerance
- tolerance to saflufenacil compared with the overexpressed wild-type PPO1 (Arabidopsis thaliana; [5]): much higher
- tolerance to saflufenacil compared with wild-type Arabidopsis thaliana (Arabidopsis thaliana; [5]): certain level of tolerance
- growth of ΔhemG transformant with the treatment of compound A ([1]; compound A 100 μM): normal growth
- tolerance/resistance to compound A compared with wild-type Huaidao No. 5 ([2]; T0 generation rice seedlings, compound A sprayed): certain level of tolerance/resistance
- resistance levels of overexpressed L423S/Y425I and overexpressed WT [2]: similar
- resistance compared with the wild-type control ([2]; compound A 135 g/ha and 270 g/ha): still showed resistance

B3: Y425V (protein)
chain: B1 chain with S423L, Y425V
modifications: Amino-acid sequence of PPO1 from rice mutant (OsPPO1 Y425V)
- growth of ΔhemG transformant on LB medium containing compound A, compared with the wild type [1]: grew normally

B4: L423G (protein)
chain: B1 chain with S423G
modifications: Amino-acid sequence of PPO1 from rice mutant (OsPPO1 L423G)
- growth of ΔhemG transformant on LB medium containing compound A, compared with the wild type [1]: grew normally

B5: Y425M (protein)
chain: B1 chain with S423L, Y425M
modifications: Amino-acid sequence of PPO1 from rice mutant (OsPPO1 Y425M)
- growth of ΔhemG transformant on LB medium containing compound A, compared with the wild type [1]: grew normally

B6: OsPPO1 WT: Amino-acid sequence of PPO1 from wild-type rice (protein)
chain: B1 chain with S423L
modifications: Amino-acid sequence of PPO1 from wild-type rice (OsPPO1 WT)
- resistance levels of overexpressed L423S/Y425I and overexpressed WT [2]: similar

Where a chain is given by its changes, count along the chain named. In names and notes the source's numbering stands.
